Source: patent US10058533B2, “Pharmaceutical composition containing Ginkgolide B and Xa factor inhibitor, preparation method thereof and use thereof” (CHENGDU BAIYU PHARMACEUTICAL CO., LTD, priority 2014, dated 2018)

Amino acid sequences for entries named in this document (tags omitted). Residues count along the entry.
UniProt P00742, 41-179 partner limits assumed: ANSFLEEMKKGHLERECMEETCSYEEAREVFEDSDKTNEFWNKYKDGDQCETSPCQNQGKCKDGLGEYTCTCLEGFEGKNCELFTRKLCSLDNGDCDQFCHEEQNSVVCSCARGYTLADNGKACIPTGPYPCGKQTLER
UniProt P00742, 235-488 limits assumed: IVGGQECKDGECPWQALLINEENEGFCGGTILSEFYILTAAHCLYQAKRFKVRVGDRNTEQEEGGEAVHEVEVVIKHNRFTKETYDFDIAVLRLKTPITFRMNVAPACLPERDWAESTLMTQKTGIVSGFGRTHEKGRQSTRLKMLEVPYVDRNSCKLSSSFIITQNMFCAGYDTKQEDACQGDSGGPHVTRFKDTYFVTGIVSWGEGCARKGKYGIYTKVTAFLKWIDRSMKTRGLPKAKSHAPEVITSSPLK

Experiments:
[1] = system: factor Xa; test: Anti-coagulation factor Xa activity in vitro (chromogenic substrate assay); type: biochemical, rabbit
Protocol: A chromogenic substrate assay was adopted, and plasma anti-Xa activity was determined on a microplate reader according to a kit specification and reference documents.

[2] = system: factor Xa; test: Plasma anti-factor Xa activity, rabbit wound-limb deep venous thrombosis forming model; type: in vivo; details: 5 mg/kg i.g., x ± SD
Protocol: Eight were taken as control group and the rest were treated by a striking device. Striking area was a round surface with the diameter of 1.5 cm, the wounding energy was calculated according to Ep=mgh, and the energy of each striking of the iron rod is 7.5 J.
Specifically: the rabbit was anesthetized by intravenous injection of 3% pentobarbital sodium at ear edge with the dose of 1 ml/kg. The rabbit was kept laying down at right side prostrate position and the left thigh was set on the striking platform. Found the trochanter of the left femur and set the striking head attached to area from the trochanter to the 1.5 cm below. The self-made striking device was used for striking the outer side of the thigh near-end, and the plaster was used for fixing the left limb on the hip/knee-bending area. When the plaster bandage was applied and the right hip was examined to move freely, the rabbit was kept to lay down until solidification. After the model establishment, the animal was allowed to drink water normally and was fed with granular food. No anticoagulant or antibiotic was used.
Animals were grouped after modeling. The drug was fed according to table 4 via oral gavage, once a day for 7 days continuously.
At 0.5, 1.0, 2.0, 3.0 and 4.0 h after the first administration, blood was taken from ear central artery. Plasma was separated and aPPT, PT and the anti-factor Xa activity were determined on an automatic coagulation detector.

[3] = target: FXa (Homo sapiens, UniProt P00742); details: cited from earlier work

In the case of `CN1CCc2nc(C(=O)N[C@@H]3C[C@@H](C(=O)N(C)C)CC[C@@H]3NC(=O)C(=O)Nc3ccc(Cl)cn3)sc2C1` [Edoxaban], the “anti-factor Xa activity” value [1] is reported as 0.79 IU/ml, the “anti-factor Xa activity” value ([2]; 0.5 h after administration) is reported as 0.25 ± 0.06 IU/ml and the “anti-factor Xa activity” value ([2]; 1 h after administration) is reported as 0.21 ± 0.08 IU/ml. The “anti-factor Xa activity” value ([2]; 2 h after administration) was 0.20 ± 0.10 IU/ml, the “anti-factor Xa activity” value ([2]; 3 h after administration) was 1.26 ± 0.09 IU/ml and the “anti-factor Xa activity” value ([2]; 4 h after administration) was 1.26 ± 0.07 IU/ml. The “selectivity to FXa compared to FIIa” value [3] was 104 times.
